Measurements: ChEMBL document CHEMBL4725222, “Advances in the Development of Phosphodiesterase-4 Inhibitors” (J Med Chem, 2020)

By UniProt entry, the sequences of proteins in these tests, tags left out. Where a name states a change or a piece, a line headed by the entry shows the natural chain unless it says otherwise.
UniProt P27815: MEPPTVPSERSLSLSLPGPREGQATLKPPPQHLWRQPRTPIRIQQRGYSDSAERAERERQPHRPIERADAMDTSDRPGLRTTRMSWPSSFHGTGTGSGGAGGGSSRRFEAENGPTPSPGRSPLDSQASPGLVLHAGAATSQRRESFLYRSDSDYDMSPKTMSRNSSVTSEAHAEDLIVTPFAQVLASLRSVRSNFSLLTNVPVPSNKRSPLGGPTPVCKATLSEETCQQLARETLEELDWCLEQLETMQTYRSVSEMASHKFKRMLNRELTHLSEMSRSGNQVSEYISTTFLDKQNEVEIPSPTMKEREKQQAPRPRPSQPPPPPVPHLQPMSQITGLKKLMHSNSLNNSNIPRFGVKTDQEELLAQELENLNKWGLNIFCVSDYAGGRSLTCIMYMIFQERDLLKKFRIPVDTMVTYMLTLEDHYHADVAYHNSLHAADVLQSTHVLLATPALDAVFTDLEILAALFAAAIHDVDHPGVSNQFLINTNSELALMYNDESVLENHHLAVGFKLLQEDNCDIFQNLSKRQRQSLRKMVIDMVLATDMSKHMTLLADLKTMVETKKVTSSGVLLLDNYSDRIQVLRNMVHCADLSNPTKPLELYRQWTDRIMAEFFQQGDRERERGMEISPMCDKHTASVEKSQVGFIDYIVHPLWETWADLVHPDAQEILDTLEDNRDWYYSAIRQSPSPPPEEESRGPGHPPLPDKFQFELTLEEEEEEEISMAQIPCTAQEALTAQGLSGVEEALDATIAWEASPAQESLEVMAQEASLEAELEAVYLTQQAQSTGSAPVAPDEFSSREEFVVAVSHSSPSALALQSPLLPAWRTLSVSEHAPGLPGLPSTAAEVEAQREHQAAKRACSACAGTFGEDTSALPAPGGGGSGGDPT
UniProt Q08499: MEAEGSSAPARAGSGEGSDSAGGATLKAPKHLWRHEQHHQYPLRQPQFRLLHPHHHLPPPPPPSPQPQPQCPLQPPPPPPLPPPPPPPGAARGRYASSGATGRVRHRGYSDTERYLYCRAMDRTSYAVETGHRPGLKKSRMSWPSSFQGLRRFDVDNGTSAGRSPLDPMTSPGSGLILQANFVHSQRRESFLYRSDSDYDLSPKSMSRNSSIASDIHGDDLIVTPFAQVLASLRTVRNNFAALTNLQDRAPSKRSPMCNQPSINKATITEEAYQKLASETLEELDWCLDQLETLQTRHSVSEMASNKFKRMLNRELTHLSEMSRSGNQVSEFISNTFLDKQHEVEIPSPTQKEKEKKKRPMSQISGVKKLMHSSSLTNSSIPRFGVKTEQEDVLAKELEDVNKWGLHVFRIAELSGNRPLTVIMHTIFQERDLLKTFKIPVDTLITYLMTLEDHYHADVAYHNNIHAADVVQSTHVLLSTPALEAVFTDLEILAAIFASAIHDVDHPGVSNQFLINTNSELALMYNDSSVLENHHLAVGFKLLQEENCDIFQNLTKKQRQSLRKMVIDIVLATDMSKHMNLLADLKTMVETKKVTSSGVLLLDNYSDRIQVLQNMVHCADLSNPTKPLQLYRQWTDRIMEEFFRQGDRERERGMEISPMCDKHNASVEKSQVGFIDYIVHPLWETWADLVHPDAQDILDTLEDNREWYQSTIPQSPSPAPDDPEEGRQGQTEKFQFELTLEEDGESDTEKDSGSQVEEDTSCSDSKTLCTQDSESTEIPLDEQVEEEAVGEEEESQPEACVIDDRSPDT
UniProt Q07343: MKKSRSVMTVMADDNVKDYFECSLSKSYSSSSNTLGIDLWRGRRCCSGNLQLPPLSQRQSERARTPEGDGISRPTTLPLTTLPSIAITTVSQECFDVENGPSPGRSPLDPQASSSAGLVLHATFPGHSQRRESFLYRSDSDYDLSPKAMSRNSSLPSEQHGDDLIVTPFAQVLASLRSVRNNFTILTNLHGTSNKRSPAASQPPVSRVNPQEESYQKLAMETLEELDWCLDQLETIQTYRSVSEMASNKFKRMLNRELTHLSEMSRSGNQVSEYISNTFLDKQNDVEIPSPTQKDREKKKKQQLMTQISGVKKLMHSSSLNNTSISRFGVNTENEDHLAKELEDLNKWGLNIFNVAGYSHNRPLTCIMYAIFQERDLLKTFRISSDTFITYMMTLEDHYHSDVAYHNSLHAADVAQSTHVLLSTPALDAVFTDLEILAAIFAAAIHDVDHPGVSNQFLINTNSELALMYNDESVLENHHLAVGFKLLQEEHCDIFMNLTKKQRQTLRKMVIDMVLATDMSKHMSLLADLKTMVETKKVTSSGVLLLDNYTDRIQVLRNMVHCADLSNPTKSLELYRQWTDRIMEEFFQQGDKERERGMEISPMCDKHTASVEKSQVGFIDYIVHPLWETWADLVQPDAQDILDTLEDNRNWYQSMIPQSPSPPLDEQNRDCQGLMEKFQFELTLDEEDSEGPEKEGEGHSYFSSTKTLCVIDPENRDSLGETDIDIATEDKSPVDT
UniProt Q08493: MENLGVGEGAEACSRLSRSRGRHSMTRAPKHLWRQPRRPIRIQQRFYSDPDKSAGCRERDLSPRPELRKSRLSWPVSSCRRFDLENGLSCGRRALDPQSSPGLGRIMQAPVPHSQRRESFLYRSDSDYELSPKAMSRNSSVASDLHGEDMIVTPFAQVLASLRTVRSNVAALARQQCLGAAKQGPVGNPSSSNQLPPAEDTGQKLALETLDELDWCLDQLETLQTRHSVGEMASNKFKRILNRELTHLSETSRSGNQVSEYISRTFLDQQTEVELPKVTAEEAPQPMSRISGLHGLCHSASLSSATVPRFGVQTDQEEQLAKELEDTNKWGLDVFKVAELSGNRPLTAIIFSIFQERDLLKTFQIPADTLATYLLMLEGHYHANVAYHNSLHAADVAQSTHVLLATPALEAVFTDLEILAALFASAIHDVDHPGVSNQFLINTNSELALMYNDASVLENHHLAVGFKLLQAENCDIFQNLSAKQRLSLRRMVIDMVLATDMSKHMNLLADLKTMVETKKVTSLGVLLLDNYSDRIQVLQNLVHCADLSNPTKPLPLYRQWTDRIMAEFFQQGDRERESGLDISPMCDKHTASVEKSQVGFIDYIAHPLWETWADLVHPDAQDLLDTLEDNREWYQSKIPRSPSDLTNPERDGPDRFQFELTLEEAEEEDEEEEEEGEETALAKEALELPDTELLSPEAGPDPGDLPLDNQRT

Molecular target: Phosphodiesterase 4 (Homo sapiens, UniProt P27815+Q08499+Q07343+Q08493)
Assay: Inhibition of PDE4 (unknown origin) expressed in Saccharomyces cerevisiae using [3H] cAMP as substrate incubated for 1 hr by scintillation proximity assay

IC50: 0.03 nM
Structure (SMILES): CCn1nc(-c2cccc(-c3cccc(C(=O)NCCCCCCCN(C)CCO)c3)c2)cc(NC(=O)Nc2c(Cl)cncc2Cl)c1=O
